Results reported in IntAct's records for PubMed 21151116.

B1: "DNA (cytosine-5)-methyltransferase 1" (Homo sapiens), P26358 (parent)
chain: MPARTAPARVPTLAVPAISLPDDVRRRLKDLERDSLTEKECVKEKLNLLHEFLQTEIKNQLCDLETKLRKEELSEEGYLAKVKSLLNKDLSLENGAHAYNREVNGRLENGNQARSEARRVGMADANSPPKPLSKPRTPRRSKSDGEAKPEPSPSPRITRKSTRQTTITSHFAKGPAKRKPQEESERAKSDESIKEEDKDQDEKRRRVTSRERVARPLPAEEPERAKSGTRTEKEEERDEKEEKRLRSQTKEPTPKQKLKEEPDREARAGVQADEDEDGDEKDEKKHRSQPKDLAAKRRPEEKEPEKVNPQISDEKDEDEKEEKRRKTTPKEPTEKKMARAKTVMNSKTHPPKCIQCGQYLDDPDLKYGQHPPDAVDEPQMLTNEKLSIFDANESGFESYEALPQHKLTCFSVYCKHGHLCPIDTGLIEKNIELFFSGSAKPIYDDDPSLEGGVNGKNLGPINEWWITGFDGGEKALIGFSTSFAEYILMDPSPEYAPIFGLMQEKIYISKIVVEFLQSNSDSTYEDLINKIETTVPPSGLNLNRFTEDSLLRHAQFVVEQVESYDEAGDSDEQPIFLTPCMRDLIKLAGVTLGQRRAQARRQTIRHSTREKDRGPTKATTTKLVYQIFDTFFAEQIEKDDREDKENAFKRRRCGVCEVCQQPECGKCKACKDMVKFGGSGRSKQACQERRCPNMAMKEADDDEEVDDNIPEMPSPKKMHQGKKKKQNKNRISWVGEAVKTDGKKSYYKKVCIDAETLEVGDCVSVIPDDSSKPLYLARVTALWEDSSNGQMFHAHWFCAGTDTVLGATSDPLELFLVDECEDMQLSYIHSKVKVIYKAPSENWAMEGGMDPESLLEGDDGKTYFYQLWYDQDYARFESPPKTQPTEDNKFKFCVSCARLAEMRQKEIPRVLEQLEDLDSRVLYYSATKNGILYRVGDGVYLPPEAFTFNIKLSSPVKRPRKEPVDEDLYPEHYRKYSDYIKGSNLDAPEPYRIGRIKEIFCPKKSNGRPNETDIKIRVNKFYRPENTHKSTPASYHADINLLYWSDEEAVVDFKAVQGRCTVEYGEDLPECVQVYSMGGPNRFYFLEAYNAKSKSFEDPPNHARSPGNKGKGKGKGKGKPKSQACEPSEPEIEIKLPKLRTLDVFSGCGGLSEGFHQAGISDTLWAIEMWDPAAQAFRLNNPGSTVFTEDCNILLKLVMAGETTNSRGQRLPQKGDVEMLCGGPPCQGFSGMNRFNSRTYSKFKNSLVVSFLSYCDYYRPRFFLLENVRNFVSFKRSMVLKLTLRCLVRMGYQCTFGVLQAGQYGVAQTRRRAIILAAAPGEKLPLFPEPLHVFAPRACQLSVVVDDKKFVSNITRLSSGPFRTITVRDTMSDLPEVRNGASALEISYNGEPQSWFQRQLRGAQYQPILRDHICKDMSALVAARMRHIPLAPGSDWRDLPNIEVRLSDGTMARKLRYTHHDRKNGRSSSGALRGVCSCVEAGKACDPAARQFNTLIPWCLPHTGNRHNHWAGLYGRLEWDGFFSTTVTNPEPMGKQGRVLHPEQHRVVSVRECARSQGFPDTYRLFGNILDKHRQVGNAVPPPLAKAIGLEIKLCMLAKARESASAKIKEEEAAKD
partner: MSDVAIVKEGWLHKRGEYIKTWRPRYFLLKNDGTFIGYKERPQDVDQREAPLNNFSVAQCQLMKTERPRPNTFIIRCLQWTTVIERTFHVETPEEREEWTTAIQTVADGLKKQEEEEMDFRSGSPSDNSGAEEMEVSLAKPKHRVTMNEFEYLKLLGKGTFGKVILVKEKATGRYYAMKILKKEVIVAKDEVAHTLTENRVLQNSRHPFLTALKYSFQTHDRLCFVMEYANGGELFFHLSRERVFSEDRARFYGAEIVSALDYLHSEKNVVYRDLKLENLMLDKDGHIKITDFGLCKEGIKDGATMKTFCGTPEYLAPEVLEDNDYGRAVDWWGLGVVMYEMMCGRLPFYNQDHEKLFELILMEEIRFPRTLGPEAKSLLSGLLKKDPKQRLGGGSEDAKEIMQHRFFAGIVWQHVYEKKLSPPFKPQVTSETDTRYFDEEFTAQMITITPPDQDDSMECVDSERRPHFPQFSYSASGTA
B2: "DNA (cytosine-5)-methyltransferase 1" (Homo sapiens), P26358 (parent)
chain: B1 chain
partner: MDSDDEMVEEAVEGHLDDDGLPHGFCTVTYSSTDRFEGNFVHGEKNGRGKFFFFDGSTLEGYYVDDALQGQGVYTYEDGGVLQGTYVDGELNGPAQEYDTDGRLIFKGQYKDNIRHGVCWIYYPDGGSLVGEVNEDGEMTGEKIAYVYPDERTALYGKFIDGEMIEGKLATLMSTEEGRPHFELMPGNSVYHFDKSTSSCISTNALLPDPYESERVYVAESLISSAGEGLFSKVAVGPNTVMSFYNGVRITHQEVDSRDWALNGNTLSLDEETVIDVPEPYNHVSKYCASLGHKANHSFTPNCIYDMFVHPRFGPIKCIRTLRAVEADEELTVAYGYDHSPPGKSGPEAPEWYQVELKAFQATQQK

Variants of: B1
Conditions: with akt1_human AKT1, P31749

Row | effect of a mutation on the interaction | Variant
1 | disrupting interaction | S143A

Variants of: B2
Conditions: with setd7_human SETD7, Q8WTS6

Row | effect of a mutation on the interaction | Variant
2 | disrupting interaction | K142R

Variants of: B2
Conditions: with setd7_human SETD7, Q8WTS6
Remark: another data set of the same source

Row | effect of a mutation on the interaction | Variant
3 | disrupting interaction | S143D
